Among the data in PMC11056994, “Potentiating Activity of GmhA Inhibitors on Gram-Negative Bacteria” (Journal of Medicinal Chemistry, 2024) are IC50 values, retold here.

The chains behind the UniProt entries cited, without tags or fusion partners.
UniProt P63224, whole entry: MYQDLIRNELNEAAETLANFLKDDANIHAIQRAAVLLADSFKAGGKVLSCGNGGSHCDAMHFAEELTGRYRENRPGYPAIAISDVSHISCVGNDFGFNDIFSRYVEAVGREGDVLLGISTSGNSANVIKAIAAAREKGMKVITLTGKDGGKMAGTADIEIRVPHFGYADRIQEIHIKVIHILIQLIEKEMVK

This experiment addresses E. coli GmhA (Escherichia coli, UniProt P63224). The format is biochemical. The conditions noted are these: luminescence assay, mean ± SD of at least 3 independent experiments. From the text:
The ability of these analogues to inhibit LPS biosynthesis in wild-type E. coli was also visualized on silver-stained LPS SDS-PAGE electrophoretic images (Figure 2) using strain C7 (018:K1:H7), which is a newborn meningitis E. coli strain containing inner- and outer-core oligosaccharides as well as the O-antigen. Inhibition was monitored by formation of the heptose-deficient Re LPS, which only comprises lipid A and Kdo, and the EC50 data are reported in Table 1.
The assay buffer “AB” contained 50 mM HEPES, pH 7.5, 1 mM MnCl2, 25 mM KCl, 0.012% Triton-X100, 1 mM dithiothreitol (DTT), and 0.1 μM myelin basic protein (MBP, Sigma, ref M1891). The following components were added in a white polystyrene Costar plate up to a final volume of 30 μL: 10 μL of inhibitor dissolved in DMSO/water 50/50 and 20 μL of GmhA of E. coli in AB. After 30 min of preincubation at room temperature, 30 μL of the substrate mixture in AB were added in each well to give a final volume of 60 μL. […] Luminescence intensity was immediately measured on a Luminoskan instrument (Thermofisher) and converted into inhibition percentages. […]

SMILES strings stand for the structures.

The IC50 is the midpoint of a concentration-inhibition curve. Read a high IC50 as weaker potency.

In turn, `O=CN(O)C[C@H](O)[C@H](O)[C@H](O)CC(F)(F)P(=O)(O)O` [Compound 84] returned an IC50 of 220 ± 30 nM.
